3 substances from PMC6770782 can be followed below.

This assay addresses canine Na+,K+-ATPase β1 subunit tagged with a hexahistidine tail at its N-terminal end (dog) (UniProt P06583). The assay can be described thus: pull-down; β1His6 immobilised from RIPA lysate on Ni-NTA resin, washed with 20 mM imidazole; 10 mg protein of prey lysate loaded, overnight at 4 °C; eluted with 500 mM imidazole; immunoblot with anti-β1 and anti-GFP, densitometry normalised to YFP-β1 WT (n = 3).

On to “YFP-β1 M2 (residues 222-224 mutated to alanine) (from UniProt P06583 1-303) (natural protein)”, for which the pull-down signal relative to YFP-β1 WT (anti-GFP densitometry) was found to be 25%.
“YFP-β1 M3 (residues 227-229 replaced by the equivalent residues of the dog β2 subunit isoform) (from UniProt P06583 1-303) (natural protein)” returned a decrease of the pull-down signal against YFP-β1 WT (anti-GFP densitometry) of 50 % decrease.
For “YFP-β1 M4 (residues 231-233 mutated to alanine) (from UniProt P06583 1-303) (natural protein)”, the decrease of the pull-down signal against YFP-β1 WT (anti-GFP densitometry) stood at 50 % decrease.
